Laboratory results as given in patent publication US20210000842A1, “TETRACYCLINE MANAGEMENT OF EGFR INHIBITOR ASSOCIATED DERMATOSES” (Foamix Pharmaceuticals Ltd., priority 2015, published 2021).

Key:
Format in all cases: physicochemical
[1] = Compatibility study of minocycline hydrochloride with excipients (visual inspection); conditions: for Compatibility with Minocycline HCl: summary, tested after the storage for up to 3 weeks
[2] = Doxycycline Monohydrate compatibility test
Method: Active agent is incubated with various excipients individually at one or more temperatures and at different ratios of active agent to a single excipient for a certain fixed period or to the point where degradation was suspected. The period can be for example 3 or 7 or 14 or 21 or 28 days or longer. Visual inspection is a criterion for indication of compatibility. Any change of color indicates oxidation or degradation. […] Tests are also carried out with combinations of excipients.
A similar compatibility study was conducted for Doxycycline Hyclate and Doxycycline Monohydrate.
Different compositions of hydrophilic and hydrophobic solvents containing Doxycycline Hyclate (Set I and Set II) and Doxycycline Monohydrate (Set III) were prepared by weighing the antibiotic in a glass vial and shaking overnight with each solvent investigated.
A similar compatibility test was performed on another form of Doxycycline—Doxycycline Monohydrate.

[3] = Doxycycline Hyclate compatibility test; conditions: summary; tested after the storage for up to 3 weeks
[4] = summary, tested after the storage for up to 3 weeks

| Compatibility with Doxycycline Hyclate [3] | Compatibility with MCH: oily emollients and waxes ([1]; MCH:excipient 1:250 for oily emollients and 1:50 for waxes, 25° C. and 40° C., max sixty days, visual inspection) | Substance | Compatibility with MCH: hydrophilic solvents ([1]; MCH: excipient 1:250, suspension at 25° C. and 40° C. for maximum of sixty days, visual inspection) | Compatibility with Minocycline HCl [1] | Visual inspection after the storage at 50° C. ([2]; mixture of 1.04% w/w Doxycycline Monohydrate with the ingredient, stored two weeks) | Compatibility with Doxycycline Monohydrate ([2]; mixtures of 1.04% w/w, excipient named as label, storage at 25° C., 40° C. and 50° C. for two weeks) | Compatibility with Doxycycline Monohydrate [2, 4] |
| --- | --- | --- | --- | --- | --- | --- | --- |
| – | – | Hexylene Glycol | incompatible | No | Black solution. | oxidized | No |
| Yes | compatible | Cetearyl octanoate | – | Yes | – | – | Yes |
